Data published in ChEMBL document CHEMBL4346735, “Discovery and pharmacological evaluation of indole derivatives as potent and selective RORγt inverse agonist for multiple autoimmune conditions” (Bioorg Med Chem Lett, 2019).
pIC50: −log10 of the molar value.

By UniProt entry, the sequences of proteins in these tests, tags left out. Where a name states a change or a piece, a line headed by the entry shows the natural chain unless it says otherwise.
UniProt P51449: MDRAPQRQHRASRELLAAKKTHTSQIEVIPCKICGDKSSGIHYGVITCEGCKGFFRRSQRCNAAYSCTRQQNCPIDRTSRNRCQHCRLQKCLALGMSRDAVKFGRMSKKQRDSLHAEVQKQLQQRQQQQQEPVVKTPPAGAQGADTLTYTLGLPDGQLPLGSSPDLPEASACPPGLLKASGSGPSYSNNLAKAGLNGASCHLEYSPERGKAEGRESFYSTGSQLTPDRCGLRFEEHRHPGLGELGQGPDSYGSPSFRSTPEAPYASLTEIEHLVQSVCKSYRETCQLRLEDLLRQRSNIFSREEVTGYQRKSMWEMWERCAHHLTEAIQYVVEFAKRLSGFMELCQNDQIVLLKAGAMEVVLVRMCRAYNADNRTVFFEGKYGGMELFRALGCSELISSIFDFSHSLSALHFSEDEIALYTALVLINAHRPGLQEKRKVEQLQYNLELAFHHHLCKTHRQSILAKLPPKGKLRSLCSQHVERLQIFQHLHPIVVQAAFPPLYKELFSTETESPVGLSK

Key:
[1] = molecular target: T1, Nuclear receptor ROR-gamma (Homo sapiens, UniProt P51449); assay: Transactivation of recombinant GAL4-DBD fused RORgammat LBD (unknown origin) expressed in HEK293T cells incubated for 18 to 24 hrs by dual-Glo luciferase assay; format: cell-based
[2] = molecular target: T1, Nuclear receptor ROR-gamma; assay: Inverse agonist activity at GST-tagged RORgammat LBD (unknown origin) using fluorescein-D22 co-activator peptide as substrate incubated for 1 hr by TR-FRET assay

Question: `O=C(O)c1ccc(-n2cc(C(=O)c3c(Cl)cccc3C(F)(F)F)c3ccccc32)cc1` was tested. Which pIC50 [1] did it give?
Answer: Its pIC50 is 7.43.

Question: How did the pIC50 [2] turn out when `O=C(O)c1ccc(-n2cc(C(=O)c3c(Cl)cccc3C(F)(F)F)c3cccc(F)c32)cc1` was run?
Answer: The pIC50 was 8.70.

Question: What about the pIC50 [1] of the same compound?
Answer: Its pIC50 is 8.00.
